From US20020198208A1, “MEDICINAL PREPARATION AND PROCESS FOR MANUFACTURING THEREOF” (priority 2000, published 2002)

How the values were obtained:
macrophages = details: inflammatory diseases
[1] = after introduction into organism
[2] = crystalline powder

Nc1cccc2c(=O)[nH][nH]c(=O)c12.[Na] [Tamerit, 5-amino-2,3-dihydrophthalazine-1,4-dione sodium salt]
duration of selective inactivation of macrophages (macrophages): 4 to 8 h | time to practically complete elimination with expired air and urine [1]: 20 to 60 min | solubility in water [2]: easily soluble in water
